Data as given in patent US20230365492A1, “LITHIUM ORGANIC ACID-AMINO ACID SALT, AND CRYSTAL FORM, COMPOSITION AND APPLICATION THEREOF” (ANYU BIOTECHNOLOGY (HANGZHOU) CO., LTD., priority 2020, published 2023).
“Also recorded” adds a separate entry of the source.

Test system: HEK293 cells
Assay: CCK-8 cytotoxicity test on HEK293 cells
Assay type: cell-based
Settings: 0-50 mM, 12 and 24 hours, absorbance 450 nm
Procedure: The absorbance was read by a microplate reader at 450 nm (results are expressed as mean±standard error).
Under conventional culture conditions, HEK293 cells were treated with lithium isobutyrate (represented by a black dotted line) or a lithium isobutyrate-L-proline salt (represented by a black solid line) with a concentration of 0, 0.7, 1.56, 3.12, 6.25, 12.5, 25 and 50 mM for 12 and 24 hours, and then detected by a CCK-8 test to obtain the cytotoxicity. The absorbance was read by a microplate reader at 450 nm (results are expressed as mean±standard error).

lithium isobutyrate-L-proline salt
cytotoxicity / survival of HEK293 cells (CCK-8): no obvious difference in the survival of the treated cells; also recorded: no significant influence on the survival of HEK293 cells
